Biological target: LPA2 (Homo sapiens, UniProt Q9HBW0)
Experiment: LPA receptor-mediated Ca2+ mobilization assay, LPA2 (RH7777 cells stably expressing LPA2)
Format: cell-based
Set-up: expressed in transfected cells
Conditions: Ca2+ transients
Method: Similarity searches were performed separately using each fingerprint to quantitate similarity. Hits meeting the 80% similarity threshold from each search were ranked based on the Tanimoto coefficient measure of similarity to a target molecule NSC12404, and the top 75 unique hits from each fingerprint search were selected for further analysis. […] This selected a diverse subset of 27 compounds for biological evaluation by choosing the middle compounds in each cluster. These 27 compounds were tested in Ca^2+ mobilization assays at a concentration of 10 μM using stable cell lines individually expressing LPA2 and also in vector-transfected control cells. Hits activating LPA2 were further tested using cells expressing the other established and putative LPA GPCRs. […]
The cells were loaded with Fura-2-acetoxymethyl esther (Fura-2/AM) in Krebs buffer containing 0.01% pluronic acid for 30 min and rinsed with Krebs buffer before measuring Ca^2+ mobilization. The ratio of peak emissions at 510 nm after 2 min of ligand addition was determined for excitation wavelengths of 340 nm/380 nm. […] The half maximally effective concentration (EC50), and inhibitory constant (Ki) values were calculated by fitting a sigmoid function to dose-response data points using KaleidaGraph software (version 4.1, Synergy Software; […]). […]

The chains behind the UniProt entries cited, without tags or fusion partners.
UniProt Q9HBW0, whole entry: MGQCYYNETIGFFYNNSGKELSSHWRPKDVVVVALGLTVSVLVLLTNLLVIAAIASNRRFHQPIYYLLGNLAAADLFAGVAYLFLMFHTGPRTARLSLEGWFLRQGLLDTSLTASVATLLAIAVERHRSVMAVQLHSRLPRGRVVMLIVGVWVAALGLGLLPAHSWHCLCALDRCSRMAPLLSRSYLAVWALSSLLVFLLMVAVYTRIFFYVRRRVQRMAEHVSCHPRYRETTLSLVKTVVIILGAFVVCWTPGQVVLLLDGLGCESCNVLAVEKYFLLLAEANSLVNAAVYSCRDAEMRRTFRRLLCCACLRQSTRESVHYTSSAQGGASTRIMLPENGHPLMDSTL

SMILES: O=C(O)c1ccccc1S(=O)(=O)NCCCN1C(=O)c2cccc3cccc(c23)C1=O [Compound 5a, 2-[3-(1,3-Dioxo-1H,3H-benzo[de]isoquinolin-2-yl)propylsulfamoyl]benzoic acid]
- Emax: 100%
